Molecular target: human organic cation transporter 3 (hOCT3) (Homo sapiens (Human), UniProt O75751)
Assay: histamine uptake experiment in HEK293 cells expressing hOCT3
Assay type: cell-based
Settings: for OCT3 inhibition ratio (%) / Histamine uptake ratio with respect to control (%): 30 μM test substance; for OCT3 inhibition ratio (%): 100 minus histamine uptake ratio; for Histamine uptake ratio with respect to control (%): [3H]histamine 100 nM, HEK293-hOCT3
Protocol: In order to measure an activity to inhibit substrate uptake by the OCT3 in each compound, a histamine uptake experiment was performed as follows. […] In this experiment, HEK293 cells, which are human embryonic kidney cell lines expressing a human organic cation transporter 3 (hOCT3), were used. The HEK293 cells were seeded at 1.5×10^5 cells/well in a 24-well plate and cultured overnight in a carbon dioxide incubator. […] After a cell culture medium was removed, a pretreatment for 5 minutes was performed with 1 mL of the HBSS-HEPES solution. Thereafter, the test substance and [3H]histamine (final concentration: 100 nM) were added to the cells and allowed to react for 1 minute at room temperature. After completion of the reaction, the reaction was stopped with the ice-cooled HBSS-HEPES solution, and extracellular fluid was aspirated by an aspirator. The cells were then washed two times with the HBSS-HEPES solution. After washing, the cells were lysed in a 0.5 M sodium hydroxide aqueous solution. An amount of histamine present in the cells was determined by measuring a radioactivity in the cell lysate with a liquid scintillation counter. […] A Histamine uptake amount per protein content when there is no uptake inhibitor is regarded as 100% of a histamine uptake ratio (control), and the histamine uptake ratio (%) in the presence of 30 μM of the test substance was calculated.

Sequences of proteins named here, by UniProt entry; tags and fusion partners are left off.
UniProt O75751, whole entry: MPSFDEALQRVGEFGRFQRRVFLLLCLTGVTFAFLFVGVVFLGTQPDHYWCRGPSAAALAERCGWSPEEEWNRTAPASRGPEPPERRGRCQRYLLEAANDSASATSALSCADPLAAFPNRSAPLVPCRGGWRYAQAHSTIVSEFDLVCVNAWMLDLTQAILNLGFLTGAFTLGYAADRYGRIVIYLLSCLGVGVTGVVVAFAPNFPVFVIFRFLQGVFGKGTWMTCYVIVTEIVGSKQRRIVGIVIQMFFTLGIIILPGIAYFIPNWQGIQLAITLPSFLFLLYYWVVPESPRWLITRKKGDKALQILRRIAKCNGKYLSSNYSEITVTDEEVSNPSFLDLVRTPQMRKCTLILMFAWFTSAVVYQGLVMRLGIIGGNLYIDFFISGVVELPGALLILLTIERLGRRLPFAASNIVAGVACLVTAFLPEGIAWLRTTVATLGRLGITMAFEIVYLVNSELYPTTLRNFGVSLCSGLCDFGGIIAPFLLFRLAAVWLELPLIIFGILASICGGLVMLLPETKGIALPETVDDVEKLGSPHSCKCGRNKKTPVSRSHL

| OCT3 inhibition ratio (%) | Histamine uptake ratio with respect to control (%) | IC80 (OCT3 inhibition) [µM] | IC50 (read-out: OCT3 inhibitory activity, IC50 value, suppression curves at 10^−7 to 10^−3 M) [µM] | Compound |
| --- | --- | --- | --- | --- |
| 61.3 | 38.7 | – | – | CCOc1ccccc1-n1nnnc1SCc1cn2cc(C)ccc2n1 |
| 84.6 | 15.4 | 30 | 8.2 | Cc1ccn2cc(C(=O)NCCSCc3ccccc3F)nc2c1 |
